Values of other authors as cited in patent US20190185544A1, “COMPOSITIONS AND METHODS OF MODULATING ABETA PROTEIN” (University of South Florida, priority 2016, published 2019).

Molecular target: LDLR (Homo sapiens, UniProt P01130)
Conditions: cited from earlier work

ApoE2: human recombinant apolipoprotein E2 protein (BioVision)
LDLR binding activity compared with ApoE3: 2%
